Measured values published in PubChem BioAssay AID1259376 (The Scripps Research Institute Molecular Screening Center, 2018).
This is a selection; strong and weak results do not stand in their true shares. Active and inactive are the calls of the source.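 How the source made its calls: active means inhibition above a cutoff derived from the DMSO control wells (cut at about 30% in these data); inactive means the rest.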

Test: bead signal artefacts at single dose – biochemical, AlphaScreen, triplicate, counter-screen for MITF inhibitor project (AID 1259376)
Settings: LysRS AlphaScreen counterscreen, signal interference, at 2.6 µM, active compounds read high
For Cc1ccc([N+](=O)[O-])c2no[n+]([O-])c12, the inhibition was inactive: -1.23%.
With CC(C)OP(=O)(OC(C)C)C(=O)c1ccco1 the inhibition was inactive: 10.7%.
With CCOP(=O)(CN)OCC the inhibition was inactive: 17.6%.
